Some results are limits rather than exact numbers.

The assay addresses CDK-2 (Homo sapiens, UniProt P24941). Description: Fluorescence polarization displacement assay (inhibitory effectiveness toward CDK-2). The following applies: IC50, inhibitory effectiveness toward CDK-2. (In general: In fluorescence polarisation assays a small probe gives low polarisation when free and higher when bound to something large.)
Usually IC50 stands for the concentration that gives 50% inhibition. A low value points to higher potency. Take `COC(=O)C(Cc1ccc(O)cc1)NC(=O)c1cc(C(=O)N(C)C)c2cc(-c3cccs3)ccc2n1` (centres unmarked) [Compound 1]: the IC50 was < 1 µM. Under `COC(=O)[C@H](Cc1ccc(O)cc1)NC(=O)c1cc(C(=O)O)c2cc(C3CC3c3ccccc3)ccc2n1` (some centres unmarked) [Compound 2] stands < 1 µM. For `COC(=O)[C@H](Cc1ccc(O)cc1)NC(=O)c1cc(C(=O)O)c2cc(/C=C/c3ccc(C(F)(F)F)cc3)ccc2n1` [Compound 5] the value was < 1 µM; for `COC(=O)[C@H](Cc1ccc(O)c(O)c1)NC(=O)c1cc(C(=O)O)c2cc(-c3cccc(C(F)(F)F)c3)ccc2n1` [Compound 10], < 1 µM. Turning to `CC(C)(C)OC(=O)[C@H](Cc1ccc(O)cc1)NC(=O)c1cc(C(=O)O)c2cc(-c3cccc(C(F)(F)F)c3)ccc2n1` [Compound 12], the IC50 was < 1 µM.

As to `COC[C@H](Cc1ccc(O)cc1)NC(=O)c1cc(NS(=O)(=O)C(C)(C)C)c2cc(-c3cccc(C(F)(F)F)c3)ccc2n1` [Compound 15], the IC50 was < 1 µM. For `Cn1nnc([C@H](Cc2ccc(O)cc2)NC(=O)c2cc(C(=O)O)c3cc(-c4cccc(C(F)(F)F)c4)ccc3n2)n1` [Compound 17] the value was < 1 µM; for `NC[C@H](Cc1ccc(O)cc1)NC(=O)c1cc(C(=O)O)c2cc(/C=C/c3ccc(Cl)cc3)ccc2n1` [Compound 18], < 1 µM; for `COC[C@H](Cc1ccc(O)cc1)NC(=O)c1cc(C(=O)O)c2cc(-c3cccc(Cn4ccnc4)c3)ccc2n1` [Compound 22], < 1 µM. Under `COC[C@H](Cc1ccc(O)cc1)NC(=O)c1cc(C(=O)O)c2cc(-c3cccc(Cn4cccn4)c3)ccc2n1` [Compound 23] stands < 1 µM; under `COC[C@H](Cc1ccc(O)cc1)NC(=O)c1cc(C(=O)O)c2cc(-c3cccc(C[n+]4cccc(O)c4)c3)ccc2n1` [Compound 24], < 1 µM.

On to `COC[C@H](Cc1ccc(O)cc1)NC(=O)c1cc(C(=O)O)c2cc(-c3cccc(COc4ccccn4)c3)ccc2n1` [Compound 25], for which the IC50 was < 1 µM. On to `COC[C@H](Cc1ccc(O)cc1)NC(=O)c1cc(NS(=O)(=O)C(C)(C)C)c2cc(-c3cccc(Cn4ccnc4)c3)ccc2n1` [Compound 28], for which the IC50 is < 1 µM.

For `COC[C@H](Cc1ccc(O)cc1)NC(=O)c1cc(NS(=O)(=O)C(C)(C)C)c2cc(-c3cccc(Cn4cccn4)c3)ccc2n1` [Compound 29], the IC50 is < 1 µM. For `CCOC[C@H](Cc1ccc(O)cc1)NC(=O)c1cc(C(=O)O)c2cc(-c3cccc(C(F)(F)F)c3)ccc2n1` [Compound 35] the value was < 1 µM; for `COC(=O)[C@H](Cc1ccc(O)cc1)NC(=O)c1cc(C(=O)O)c2cc(/C=C/c3ccccc3)ccc2n1` [Compound 37], < 1 µM. Under `COC(=O)C[C@H](Cc1ccc(O)cc1)NC(=O)c1cc(C(=O)O)c2cc(-c3cccc(C(F)(F)F)c3)ccc2n1` [Compound 40] stands < 1 µM; under `COC[C@H](Cc1ccc(O)cc1)NC(=O)c1cc(C(=O)O)c2cc(OCc3ccc(Cl)cc3)ccc2n1` [Compound 43], < 1 µM.

With `COC[C@H](Cc1ccc(O)cc1)NC(=O)c1cc(C(=O)O)c2cc(OCc3cccc(C(F)(F)F)c3)ccc2n1` [Compound 46], the IC50 is < 1 µM. Regarding `COC[C@H](Cc1ccc(O)cc1)NC(=O)c1cc(C(=O)O)c2cc(COc3ccc(OC(F)(F)F)cc3)ccc2n1` [Compound 47], the IC50 was < 1 µM.

`COC[C@H](Cc1ccc(O)cc1)NC(=O)c1cc(NS(=O)(=O)Cc2ccccc2)c2cc(-c3cccc(C(F)(F)F)c3)ccc2n1` [Compound 53]: the 50% inhibitory concentration (IC50) was < 1 µM. For the compound `COC(=O)[C@H](Cc1ccc(O)cc1)NC(=O)c1cc(C(=O)O)c2cc(-c3ccc(OCc4ccccc4)cc3)ccc2n1` [Compound 56], the IC50 was < 1 µM.

For the compound `COC(=O)[C@H](Cc1ccc(O)cc1)NC(=O)c1cc(C(=O)O)c2cc(-c3ccc(C(F)(F)F)cc3)ccc2n1` [Compound 57], the IC50 was < 1 µM.

On to `CCCCS(=O)(=O)Nc1cc(C(=O)N[C@H](COC)Cc2ccc(O)cc2)nc2ccc(-c3cccc(C(F)(F)F)c3)cc12` [Compound 61], for which the IC50 is < 1 µM. Turning to `COC(=O)c1cccc(-c2ccc3nc(C(=O)N[C@@H](Cc4ccc(O)cc4)C(=O)OC)cc(C(=O)O)c3c2)c1` [Compound 62], the IC50 is < 1 µM. For `COC[C@H](Cc1ccc(O)cc1)NC(=O)c1cc(NS(=O)(=O)c2ccccc2)c2cc(-c3cccc(C(F)(F)F)c3)ccc2n1` [Compound 65] the value was < 1 µM; for `COC(=O)[C@H](Cc1ccc(O)cc1)NC(=O)c1cc(C(=O)O)c2cc(-c3ccccc3C)ccc2n1` [Compound 66], < 1 µM; for `CCS(=O)(=O)Nc1cc(C(=O)N[C@H](COC)Cc2ccc(O)cc2)nc2ccc(-c3cccc(C(F)(F)F)c3)cc12` [Compound 68], < 1 µM. With `COC(=O)C(NC(=O)c1cc(C(=O)O)c2cc(-c3cccc(C(F)(F)F)c3)ccc2n1)[C@@H](C)c1ccccc1` (some centres unmarked) [Compound 70], the IC50 was < 1 µM. For `COC(=O)[C@H](Cc1ccc(O)cc1)NC(=O)c1cc(C(=O)O)c2cc(-c3ccc4c(c3)OCO4)ccc2n1` [Compound 74] the value was < 1 µM; for `COC(=O)[C@H](Cc1ccc(O)cc1)NC(=O)c1cc(C(=O)O)c2cc(-c3ccc(C(C)(C)C)cc3)ccc2n1` [Compound 77], < 1 µM; for `O=C(N[C@H](CO)Cc1ccc(O)cc1)c1cc(C(=O)O)c2cc(-c3cccc(C(F)(F)F)c3)ccc2n1` [Compound 78], < 1 µM. For `COC[C@H](Cc1ccc(O)cc1)NC(=O)c1cc(NS(=O)(=O)C(C)(C)C)c2cc(-c3cccc(Cn4ccccc4=O)c3)ccc2n1` [Compound 79], the IC50 is < 1 µM. Under `CN1CCN(C[C@H](Cc2ccc(O)cc2)NC(=O)c2cc(C(=O)O)c3cc(/C=C/c4ccc(Cl)cc4)ccc3n2)CC1` [Compound 80] stands < 1 µM. For the compound `NCC[C@H](Cc1ccc(O)cc1)NC(=O)c1cc(C(=O)O)c2cc(/C=C/c3ccc(Cl)cc3)ccc2n1` [Compound 84], the IC50 is < 1 µM. `COC(=O)[C@H](Cc1ccc(O)cc1)NC(=O)c1cc(C(=O)O)c2cc(-c3ccc(-c4ccccc4)cc3)ccc2n1` [Compound 85]: the IC50 was < 1 µM.

Turning to `COC[C@H](Cc1ccc(O)cc1)NC(=O)c1cc(NS(=O)(=O)c2cccs2)c2cc(-c3cccc(C(F)(F)F)c3)ccc2n1` [Compound 88], the IC50 is < 1 µM.

With `COC[C@H](Cc1ccc(O)cc1)NC(=O)c1cc(NS(=O)(=O)C(C)C)c2cc(-c3cccc(C(F)(F)F)c3)ccc2n1` [Compound 89], the IC50 is < 1 µM. For `COC(=O)[C@H](Cc1ccc(O)cc1)NC(=O)c1cc(-c2nn[nH]n2)c2cc(-c3cccc(Cl)c3)ccc2n1` [Compound 94] the value was 1 to 40 µM; for `COC[C@H](Cc1ccc(O)cc1)NC(=O)c1cc(NS(C)(=O)=O)c2cc(-c3cccc(C(F)(F)F)c3)ccc2n1` [Compound 96], 1 to 40 µM; for `Cn1ccnc1[C@H](Cc1ccc(O)cc1)NC(=O)c1cc(C(=O)O)c2cc(-c3cccc(C(F)(F)F)c3)ccc2n1` [Compound 100], 1 to 40 µM. Under `COC(=O)c1ccc(-c2ccc3nc(C(=O)N[C@@H](Cc4ccc(O)cc4)C(=O)OC)cc(C(=O)O)c3c2)cc1` [Compound 101] stands 1 to 40 µM; under `Cn1nnnc1[C@H](Cc1ccc(O)cc1)NC(=O)c1cc(C(=O)O)c2cc(-c3cccc(C(F)(F)F)c3)ccc2n1` [Compound 102], 1 to 40 µM.

`O=C(N[C@@H](Cc1ccc(O)cc1)Cn1cccn1)c1cc(C(=O)O)c2cc(/C=C/c3ccc(Cl)cc3)ccc2n1` [Compound 105] registered an IC50 of 1 to 40 µM. Under `COC[C@H](Cc1ccc(O)cc1)NC(=O)c1cc(C(=O)O)c2cc(COc3cccc(C(F)(F)F)c3)ccc2n1` [Compound 106] stands 1 to 40 µM; under `COC(=O)[C@H](Cc1ccc(O)cc1)NC(=O)c1cc(C(=O)O)c2cc(-c3cc(F)cc(F)c3)ccc2n1` [Compound 108], 1 to 40 µM. For `COC[C@H](Cc1ccc(O)cc1)NC(=O)c1cc(C(=O)O)c2cc(CSc3ccc(C(F)(F)F)cc3)ccc2n1` [Compound 111] the value was 1 to 40 µM; for `CCC[C@H](NC(=O)c1cc(C(=O)N[C@@H](Cc2ccc(O)cc2)C(=O)OC)nc2ccc(OCc3ccccc3)cc12)C(=O)O` [Compound 114], 1 to 40 µM.

As for `COC(=O)[C@H](Cc1ccc(O)cc1)NC(=O)c1cc(C(=O)N[C@H](C(=O)O)C(C)C)c2cc(OCc3ccccc3)ccc2n1` [Compound 115], the IC50 was in the range of 1 to 40 µM.

Consider `COC[C@H](Cc1ccc(O)cc1)NC(=O)c1cc(C(=O)O)c2cc(COc3cccc(OC(F)(F)F)c3)ccc2n1` [Compound 117], for which the IC50 lay in the range of 1 to 40 µM. Under `O=C(N[C@@H](Cc1ccc(O)cc1)Cn1ccnc1)c1cc(C(=O)O)c2cc(/C=C/c3ccc(Cl)cc3)ccc2n1` [Compound 118] stands 1 to 40 µM; under `COC[C@H](Cc1ccc(O)cc1)NC(=O)c1cc(NS(=O)(=O)C(C)(C)C)c2cc(C#Cc3ccccn3)ccc2n1` [Compound 119], 1 to 40 µM; under `COC(=O)[C@H](Cc1ccc(O)cc1)NC(=O)c1cc(C(=O)O)c2cc(-c3ccc(C#N)cc3)ccc2n1` [Compound 121], 1 to 40 µM. Regarding `COC(=O)[C@H](Cc1ccncc1)NC(=O)c1cc(C(=O)O)c2cc(-c3cccc(C(F)(F)F)c3)ccc2n1` [Compound 123], the IC50 was 1 to 40 µM. Under `COC[C@H](Cc1ccc(O)cc1)NC(=O)c1cc(C(=O)O)c2cc(-c3cccc(CN4CCSC4)c3)ccc2n1` [Compound 124] stands 1 to 40 µM; under `COC[C@H](Cc1ccc(O)cc1)NC(=O)c1cc(C(=O)O)c2cc(CSc3ccc(Cl)cc3)ccc2n1` [Compound 126], 1 to 40 µM.

The compound `CN(C)CCNC[C@H](Cc1ccc(O)cc1)NC(=O)c1cc(C(=O)O)c2cc(/C=C/c3ccc(Cl)cc3)ccc2n1` [Compound 127] registered an IC50 of 1 to 40 µM. With `COC[C@H](Cc1ccc(O)cc1)NC(=O)c1cc(C(=O)O)c2cc(OCc3ccccc3)ccc2n1` [Compound 128], the IC50 is 1 to 40 µM. Compound `COC[C@H](Cc1ccc(O)cc1)NC(=O)c1cc(C(=O)O)c2cc(-c3cccc(CO)c3)ccc2n1` [Compound 131] showed an IC50 of 1 to 40 µM.

These data come from US7511063B2, “High affinity quinoline-based kinase ligands” (Schering Corporation, priority 2006, dated 2009).
